Results published in ChEMBL document CHEMBL1150493, “A practical and scalable synthesis of SR 142801, a tachykinin NK3 antagonist” (Bioorg Med Chem Lett, 1997).

Protein sequences, listed by entry. Tags and fused reporters are not part of them.
UniProt P29371, whole entry: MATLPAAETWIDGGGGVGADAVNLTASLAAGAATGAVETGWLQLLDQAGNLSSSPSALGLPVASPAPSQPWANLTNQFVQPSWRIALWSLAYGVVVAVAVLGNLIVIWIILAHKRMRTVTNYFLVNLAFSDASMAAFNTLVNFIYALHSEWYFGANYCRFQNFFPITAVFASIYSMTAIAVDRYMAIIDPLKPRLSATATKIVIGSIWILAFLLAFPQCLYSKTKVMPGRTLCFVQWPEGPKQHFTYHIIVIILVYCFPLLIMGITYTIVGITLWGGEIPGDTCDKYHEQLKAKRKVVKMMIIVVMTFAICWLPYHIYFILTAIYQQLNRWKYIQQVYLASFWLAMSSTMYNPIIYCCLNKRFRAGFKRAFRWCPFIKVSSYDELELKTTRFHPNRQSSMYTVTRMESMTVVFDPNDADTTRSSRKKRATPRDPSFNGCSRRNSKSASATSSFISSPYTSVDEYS

Molecular target: Neuromedin-K receptor (Homo sapiens, UniProt P29371)
Experiment: Tachykinin receptor 3 binding affinity was determined by incubation with CHO cells expressing human NK3 receptors
Format: cell-based

- IC50: 0.8 nM
Structure (SMILES): CC(=O)N(C)C1(c2ccccc2)CCN(CCC[C@]2(c3ccc(Cl)c(Cl)c3)CCCN(C(=O)c3ccccc3)C2)CC1 [OSANETANT]
